# System: LNCaP human prostate cancer cell line
# Experiment: MTT cytotoxicity test, LNCaP
# Type: cell-based
smiles,measurement,value
"CN1CC2(NC(=[Se])N(c3ccc(F)c(Cl)c3)C2=O)C2(C1)C(=O)Nc1ccc(Cl)cc12 (stereo not shown) [Compound 6r, 5″-Chloro-1-(3-chloro-4-fluorophenyl)-1′-methyl-2-selenoxodispiro[imidazolidine-4,3′-pyrrolidine-4′,3″-indoline]-2″,5-dione]",selectivity on LNCaP cells over PC3 cells,selective
